According to patent US5574008A, “Biologically active fragments of glucagon-like insulinotropic peptide” (Eli Lilly and Company, priority 1994, dated 1996):

Test system: fasted normal Sprague-Dawley rats
Test: In vivo hyperglycemic clamp assay (glucose up-take assay)
Set-up: species or system rat
Details: 0.3 nmol/kg iv bolus at 60 min
Text: In vivo Hyperglycemic Clamp Assay (Glucose Up-take Assay) Male Sprague-Dawley rats (Charles Rivers) weighing about 350 grams were allowed to acclimate to their surroundings for a week after which they were cannulated under isoflurane inhalation anesthetic. Two catheters were implanted into the jugular vein for infusions of glucose and GLP-1 fragment. Another catheter was implanted into the carotid artery for sampling blood. The catheters were exteriorized through the skin at the vertex of the head, filled with a glycerol/heparin solution (30 ml glycerol/10 ml heparin from a 1000 u/ml stock solution), and closed off with a one centimeter stainless steel plug. The rats were housed individually in wire mesh cages and were fed ad libitum on a standard rat chow diet. Each animal was given at least one week to recover from surgery before testing any GLP-1 fragments for biological activity. The rats were fasted overnight; on the morning of the experiment, sampling tubes were connected to the indwelling catheters, and the tubes were enclosed in a light weight stainless steel spring for protection. The rats were acclimated to their cages for 15 minutes. All experiments were carried out in conscious, free moving rats. A basal blood sample was taken for measurement of insulin and glucose levels at time zero on the timer. The rats were then given a bolus of 20% dextrose to raise plasma glucose to either 150 mg/dl (8.3 mM) or 200 mg/dl (11.2 mM). Plasma glucose levels were maintained at the chosen level by measuring plasma glucose levels approximately every 5 minutes and adjusting the calibrated variable infusion pump as needed to maintain the established blood glucose levels. Blood samples were collected at 45 and 60 minutes for the control period measurements. At 60 minutes into the clamp, 0.3 nmol/kg of the experimental GLP-1 fragment was injected via the jugular vein catheter and flushed with saline. […] The blood samples were centrifuged in a micro centrifuge to separate the plasma component. Plasma glucose was measured on a Beckman Glucose analyzer II using the glucose oxidase method. Plasma insulin was determined by standard radio immunoassay as per the manufacturer's directions (Diagnostic Products Corp.). The activity of the GLP-1 fragment was determined by the percentage change in glucose infusion rate and change in insulin secreted. These two parameters were compared to control rats that received only diluent. Note: This assay is based on reports that GLP-1 insulinotropic action is glucose dependent. The assay protocol eliminates variability due to falling glucose levels in other protocols using the "bolus" method. The hyperglycemic clamp involved administration of variable amounts of glucose (20% dextrose) to maintain glucose at a constant level of 8.3 or 11.2 mM in fasted normal Sprague-Dawley rats. The hyperglycemic clamp is maintained for 1 hour after which the GLP-1 fragment is injected as a bolus through the jugular vein. […] The glucose infusion rate (GIR) in the last 15 minutes of the control period and after the injection of the peptide is calculated. The activity of the peptide is determined by the increase in glucose infusion rate and change in insulin secreted after the injection of the peptide.

[1] = 150 mg/dl plasma glucose clamp, time 60 min
[2] = 150 mg/dl plasma glucose clamp, time 62 min
[3] = 150 mg/dl plasma glucose clamp, time 64 min
[4] = 150 mg/dl plasma glucose clamp, time 66 min
[5] = 150 mg/dl plasma glucose clamp, time 68 min
[6] = 150 mg/dl plasma glucose clamp, time 70 min
[7] = 150 mg/dl plasma glucose clamp, time 75 min
[8] = 150 mg/dl plasma glucose clamp, time 80 min
[9] = 150 mg/dl plasma glucose clamp, time 85 min
[10] = 150 mg/dl plasma glucose clamp, time 90 min
[11] = 150 mg/dl plasma glucose clamp, time 100 min
[12] = 150 mg/dl plasma glucose clamp, time 110 min
[13] = 150 mg/dl plasma glucose clamp, time 120 min
[14] = 150 mg/dl plasma glucose clamp, time 130 min
[15] = 150 mg/dl plasma glucose clamp, time 140 min
[16] = 150 mg/dl plasma glucose clamp, time 150 min

## CC[C@H](C)[C@H](NC(=O)[C@H](Cc1ccccc1)NC(=O)[C@H](CCC(=O)O)NC(=O)[C@H](CCCCN)NC(=O)[C@H](C)NC(=O)[C@H](C)NC(=O)[C@H](CCC(N)=O)NC(=O)CNC(=O)[C@H](CCC(=O)O)NC(=O)[C@H](CC(C)C)NC(=O)[C@H](Cc1ccc(O)cc1)NC(=O)[C@H](CO)NC(=O)[C@H](CO)NC(=O)[C@@H](NC(=O)[C@H](CC(=O)O)NC(=O)[C@H](CO)NC(=O)[C@@H](NC(=O)[C@H](Cc1ccccc1)NC(=O)[C@@H](NC(=O)CNC(=O)[C@H](CCC(=O)O)NC(=O)[C@H](C)N)[C@@H](C)O)[C@@H](C)O)C(C)C)C(=O)N[C@@H](C)C(=O)N[C@@H](Cc1c[nH]c2ccccc12)C(=O)N[C@@H](CC(C)C)C(=O)N[C@H](C(=O)N[C@@H](CCCCN)C(=O)NCC(=O)N[C@@H](CCCNC(=N)N)C(=O)NCC(=O)O)C(C)C [GLP-1(8-37)OH]
[1]
  % Change in GIR: 5.50%
  Plasma Insulin Change: 0.792 ng/mL
[2]
  % Change in GIR: -0.21%
  Plasma Insulin Change: -0.213 ng/mL
[3]
  % Change in GIR: -0.21%
  Plasma Insulin Change: -0.079 ng/mL
[4]
  % Change in GIR: -0.21%
  Plasma Insulin Change: -0.026 ng/mL
[5]
  % Change in GIR: 42.55%
  Plasma Insulin Change: 0.655 ng/mL
[6]
  % Change in GIR: 45.77%
  Plasma Insulin Change: 0.324 ng/mL
[7]
  % Change in GIR: -6.20%
  Plasma Insulin Change: -0.412 ng/mL
[8]
  % Change in GIR: -100.0%
  Plasma Insulin Change: -0.217 ng/mL
[9]
  % Change in GIR: -100.0%
  Plasma Insulin Change: -0.489 ng/mL
[10]
  % Change in GIR: -100.0%
  Plasma Insulin Change: -0.163 ng/mL
[11]
  % Change in GIR: -100.0%
  Plasma Insulin Change: -0.334 ng/mL
[12]
  % Change in GIR: -100.0%
  Plasma Insulin Change: -0.324 ng/mL
[13]
  % Change in GIR: -100.0%
  Plasma Insulin Change: -0.792 ng/mL
[14]
  % Change in GIR: -100.0%
  Plasma Insulin Change: -0.792 ng/mL
[15]
  % Change in GIR: -100.0%
  Plasma Insulin Change: -0.792 ng/mL
[16]
  % Change in GIR: -100.0%
  Plasma Insulin Change: -0.792 ng/mL

## CC[C@H](C)[C@H](NC(=O)[C@H](Cc1ccccc1)NC(=O)[C@H](CCC(=O)O)NC(=O)[C@H](CCCCN)NC(=O)[C@H](C)NC(=O)[C@H](C)NC(=O)[C@H](CCC(N)=O)NC(=O)CNC(=O)[C@H](CCC(=O)O)NC(=O)[C@H](CC(C)C)NC(=O)[C@H](Cc1ccc(O)cc1)NC(=O)[C@H](CO)NC(=O)[C@H](CO)NC(=O)[C@@H](NC(=O)[C@H](CC(=O)O)NC(=O)[C@H](CO)NC(=O)[C@@H](NC(=O)[C@H](Cc1ccccc1)NC(=O)[C@@H](NC(=O)CNC(=O)[C@@H](N)CCC(=O)O)[C@@H](C)O)[C@@H](C)O)C(C)C)C(=O)N[C@@H](C)C(=O)N[C@@H](Cc1c[nH]c2ccccc12)C(=O)N[C@@H](CC(C)C)C(=O)N[C@H](C(=O)N[C@@H](CCCCN)C(=O)NCC(=O)N[C@@H](CCCNC(=N)N)C(=O)NCC(=O)O)C(C)C [GLP-1(9-37)OH]
200 mg/dl plasma glucose clamp, time 60 min
  % Change in GIR: 18.229%
200 mg/dl plasma glucose clamp, time 62 min
  % Change in GIR: 20.833%
200 mg/dl plasma glucose clamp, time 64 min
  % Change in GIR: 20.045%
200 mg/dl plasma glucose clamp, time 66 min
  % Change in GIR: 9.789%
200 mg/dl plasma glucose clamp, time 68 min
  % Change in GIR: 17.016%
200 mg/dl plasma glucose clamp, time 70 min
  % Change in GIR: 24.101%
200 mg/dl plasma glucose clamp, time 75 min
  % Change in GIR: 30.211%
200 mg/dl plasma glucose clamp, time 80 min
  % Change in GIR: 13.304%
200 mg/dl plasma glucose clamp, time 85 min
  % Change in GIR: -1.974%
200 mg/dl plasma glucose clamp, time 90 min
  % Change in GIR: -16.488%
200 mg/dl plasma glucose clamp, time 100 min
  % Change in GIR: -34.401%
200 mg/dl plasma glucose clamp, time 110 min
  % Change in GIR: -48.313%
200 mg/dl plasma glucose clamp, time 120 min
  % Change in GIR: -55.055%
200 mg/dl plasma glucose clamp, time 130 min
  % Change in GIR: -56.835%
200 mg/dl plasma glucose clamp, time 140 min
  % Change in GIR: -56.835%
200 mg/dl plasma glucose clamp, time 150 min
  % Change in GIR: -56.835%
